Experiments:
[1] = target: T1, Thymidine kinase (Human alphaherpesvirus 1, UniProt Q9QNF7); assay: Inhibition of HSV-1 thymidine kinase, 1 uM [3H]thymidine and ATP as phosphate donor
T1 sequence (Q9QNF7 whole entry): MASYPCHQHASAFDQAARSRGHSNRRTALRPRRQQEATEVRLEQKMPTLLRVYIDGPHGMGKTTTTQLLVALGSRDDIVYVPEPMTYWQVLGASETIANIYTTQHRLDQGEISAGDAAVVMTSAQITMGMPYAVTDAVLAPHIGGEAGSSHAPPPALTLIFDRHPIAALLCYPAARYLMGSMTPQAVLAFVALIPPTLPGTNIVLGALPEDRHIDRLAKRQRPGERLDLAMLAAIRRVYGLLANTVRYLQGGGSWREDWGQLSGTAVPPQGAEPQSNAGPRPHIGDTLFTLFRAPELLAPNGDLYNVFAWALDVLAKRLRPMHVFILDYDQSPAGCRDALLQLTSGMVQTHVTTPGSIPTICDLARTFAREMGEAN

[2] = target: T2, Thymidine kinase (Human herpesvirus 2, UniProt Q6L709); assay: Inhibition of HSV-2 thymidine kinase, 2 uM [3H]thymidine and ATP as phosphate donor; design: species or system Human alphaherpesvirus 2
T2 sequence (Q6L709 whole entry): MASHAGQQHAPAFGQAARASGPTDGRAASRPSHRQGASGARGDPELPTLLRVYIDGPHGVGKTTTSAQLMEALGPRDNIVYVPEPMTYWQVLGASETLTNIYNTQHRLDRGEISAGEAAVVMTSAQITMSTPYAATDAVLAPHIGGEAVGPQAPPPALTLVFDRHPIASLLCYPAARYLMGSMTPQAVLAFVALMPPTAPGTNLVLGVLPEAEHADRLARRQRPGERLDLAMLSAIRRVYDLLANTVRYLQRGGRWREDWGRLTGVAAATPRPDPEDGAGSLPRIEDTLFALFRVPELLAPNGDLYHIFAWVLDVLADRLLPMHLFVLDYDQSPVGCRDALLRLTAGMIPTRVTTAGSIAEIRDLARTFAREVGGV

Work on C=CCn1cnc2c(=O)[nH]c(Nc3ccccc3)nc21 yielded an IC50 [1] of 450 nM.

With O=c1[nH]c(Nc2ccccc2)nc2c1ncn2CCO the IC50 [1] was 2900 nM and the IC50 [2] was 1200 nM.
